Measurements: paper PMC4902270 (The Biochemical journal, 2015)

Chains of the proteins cited; added tags and fusions are not shown.
UniProt B0LPN4, whole entry: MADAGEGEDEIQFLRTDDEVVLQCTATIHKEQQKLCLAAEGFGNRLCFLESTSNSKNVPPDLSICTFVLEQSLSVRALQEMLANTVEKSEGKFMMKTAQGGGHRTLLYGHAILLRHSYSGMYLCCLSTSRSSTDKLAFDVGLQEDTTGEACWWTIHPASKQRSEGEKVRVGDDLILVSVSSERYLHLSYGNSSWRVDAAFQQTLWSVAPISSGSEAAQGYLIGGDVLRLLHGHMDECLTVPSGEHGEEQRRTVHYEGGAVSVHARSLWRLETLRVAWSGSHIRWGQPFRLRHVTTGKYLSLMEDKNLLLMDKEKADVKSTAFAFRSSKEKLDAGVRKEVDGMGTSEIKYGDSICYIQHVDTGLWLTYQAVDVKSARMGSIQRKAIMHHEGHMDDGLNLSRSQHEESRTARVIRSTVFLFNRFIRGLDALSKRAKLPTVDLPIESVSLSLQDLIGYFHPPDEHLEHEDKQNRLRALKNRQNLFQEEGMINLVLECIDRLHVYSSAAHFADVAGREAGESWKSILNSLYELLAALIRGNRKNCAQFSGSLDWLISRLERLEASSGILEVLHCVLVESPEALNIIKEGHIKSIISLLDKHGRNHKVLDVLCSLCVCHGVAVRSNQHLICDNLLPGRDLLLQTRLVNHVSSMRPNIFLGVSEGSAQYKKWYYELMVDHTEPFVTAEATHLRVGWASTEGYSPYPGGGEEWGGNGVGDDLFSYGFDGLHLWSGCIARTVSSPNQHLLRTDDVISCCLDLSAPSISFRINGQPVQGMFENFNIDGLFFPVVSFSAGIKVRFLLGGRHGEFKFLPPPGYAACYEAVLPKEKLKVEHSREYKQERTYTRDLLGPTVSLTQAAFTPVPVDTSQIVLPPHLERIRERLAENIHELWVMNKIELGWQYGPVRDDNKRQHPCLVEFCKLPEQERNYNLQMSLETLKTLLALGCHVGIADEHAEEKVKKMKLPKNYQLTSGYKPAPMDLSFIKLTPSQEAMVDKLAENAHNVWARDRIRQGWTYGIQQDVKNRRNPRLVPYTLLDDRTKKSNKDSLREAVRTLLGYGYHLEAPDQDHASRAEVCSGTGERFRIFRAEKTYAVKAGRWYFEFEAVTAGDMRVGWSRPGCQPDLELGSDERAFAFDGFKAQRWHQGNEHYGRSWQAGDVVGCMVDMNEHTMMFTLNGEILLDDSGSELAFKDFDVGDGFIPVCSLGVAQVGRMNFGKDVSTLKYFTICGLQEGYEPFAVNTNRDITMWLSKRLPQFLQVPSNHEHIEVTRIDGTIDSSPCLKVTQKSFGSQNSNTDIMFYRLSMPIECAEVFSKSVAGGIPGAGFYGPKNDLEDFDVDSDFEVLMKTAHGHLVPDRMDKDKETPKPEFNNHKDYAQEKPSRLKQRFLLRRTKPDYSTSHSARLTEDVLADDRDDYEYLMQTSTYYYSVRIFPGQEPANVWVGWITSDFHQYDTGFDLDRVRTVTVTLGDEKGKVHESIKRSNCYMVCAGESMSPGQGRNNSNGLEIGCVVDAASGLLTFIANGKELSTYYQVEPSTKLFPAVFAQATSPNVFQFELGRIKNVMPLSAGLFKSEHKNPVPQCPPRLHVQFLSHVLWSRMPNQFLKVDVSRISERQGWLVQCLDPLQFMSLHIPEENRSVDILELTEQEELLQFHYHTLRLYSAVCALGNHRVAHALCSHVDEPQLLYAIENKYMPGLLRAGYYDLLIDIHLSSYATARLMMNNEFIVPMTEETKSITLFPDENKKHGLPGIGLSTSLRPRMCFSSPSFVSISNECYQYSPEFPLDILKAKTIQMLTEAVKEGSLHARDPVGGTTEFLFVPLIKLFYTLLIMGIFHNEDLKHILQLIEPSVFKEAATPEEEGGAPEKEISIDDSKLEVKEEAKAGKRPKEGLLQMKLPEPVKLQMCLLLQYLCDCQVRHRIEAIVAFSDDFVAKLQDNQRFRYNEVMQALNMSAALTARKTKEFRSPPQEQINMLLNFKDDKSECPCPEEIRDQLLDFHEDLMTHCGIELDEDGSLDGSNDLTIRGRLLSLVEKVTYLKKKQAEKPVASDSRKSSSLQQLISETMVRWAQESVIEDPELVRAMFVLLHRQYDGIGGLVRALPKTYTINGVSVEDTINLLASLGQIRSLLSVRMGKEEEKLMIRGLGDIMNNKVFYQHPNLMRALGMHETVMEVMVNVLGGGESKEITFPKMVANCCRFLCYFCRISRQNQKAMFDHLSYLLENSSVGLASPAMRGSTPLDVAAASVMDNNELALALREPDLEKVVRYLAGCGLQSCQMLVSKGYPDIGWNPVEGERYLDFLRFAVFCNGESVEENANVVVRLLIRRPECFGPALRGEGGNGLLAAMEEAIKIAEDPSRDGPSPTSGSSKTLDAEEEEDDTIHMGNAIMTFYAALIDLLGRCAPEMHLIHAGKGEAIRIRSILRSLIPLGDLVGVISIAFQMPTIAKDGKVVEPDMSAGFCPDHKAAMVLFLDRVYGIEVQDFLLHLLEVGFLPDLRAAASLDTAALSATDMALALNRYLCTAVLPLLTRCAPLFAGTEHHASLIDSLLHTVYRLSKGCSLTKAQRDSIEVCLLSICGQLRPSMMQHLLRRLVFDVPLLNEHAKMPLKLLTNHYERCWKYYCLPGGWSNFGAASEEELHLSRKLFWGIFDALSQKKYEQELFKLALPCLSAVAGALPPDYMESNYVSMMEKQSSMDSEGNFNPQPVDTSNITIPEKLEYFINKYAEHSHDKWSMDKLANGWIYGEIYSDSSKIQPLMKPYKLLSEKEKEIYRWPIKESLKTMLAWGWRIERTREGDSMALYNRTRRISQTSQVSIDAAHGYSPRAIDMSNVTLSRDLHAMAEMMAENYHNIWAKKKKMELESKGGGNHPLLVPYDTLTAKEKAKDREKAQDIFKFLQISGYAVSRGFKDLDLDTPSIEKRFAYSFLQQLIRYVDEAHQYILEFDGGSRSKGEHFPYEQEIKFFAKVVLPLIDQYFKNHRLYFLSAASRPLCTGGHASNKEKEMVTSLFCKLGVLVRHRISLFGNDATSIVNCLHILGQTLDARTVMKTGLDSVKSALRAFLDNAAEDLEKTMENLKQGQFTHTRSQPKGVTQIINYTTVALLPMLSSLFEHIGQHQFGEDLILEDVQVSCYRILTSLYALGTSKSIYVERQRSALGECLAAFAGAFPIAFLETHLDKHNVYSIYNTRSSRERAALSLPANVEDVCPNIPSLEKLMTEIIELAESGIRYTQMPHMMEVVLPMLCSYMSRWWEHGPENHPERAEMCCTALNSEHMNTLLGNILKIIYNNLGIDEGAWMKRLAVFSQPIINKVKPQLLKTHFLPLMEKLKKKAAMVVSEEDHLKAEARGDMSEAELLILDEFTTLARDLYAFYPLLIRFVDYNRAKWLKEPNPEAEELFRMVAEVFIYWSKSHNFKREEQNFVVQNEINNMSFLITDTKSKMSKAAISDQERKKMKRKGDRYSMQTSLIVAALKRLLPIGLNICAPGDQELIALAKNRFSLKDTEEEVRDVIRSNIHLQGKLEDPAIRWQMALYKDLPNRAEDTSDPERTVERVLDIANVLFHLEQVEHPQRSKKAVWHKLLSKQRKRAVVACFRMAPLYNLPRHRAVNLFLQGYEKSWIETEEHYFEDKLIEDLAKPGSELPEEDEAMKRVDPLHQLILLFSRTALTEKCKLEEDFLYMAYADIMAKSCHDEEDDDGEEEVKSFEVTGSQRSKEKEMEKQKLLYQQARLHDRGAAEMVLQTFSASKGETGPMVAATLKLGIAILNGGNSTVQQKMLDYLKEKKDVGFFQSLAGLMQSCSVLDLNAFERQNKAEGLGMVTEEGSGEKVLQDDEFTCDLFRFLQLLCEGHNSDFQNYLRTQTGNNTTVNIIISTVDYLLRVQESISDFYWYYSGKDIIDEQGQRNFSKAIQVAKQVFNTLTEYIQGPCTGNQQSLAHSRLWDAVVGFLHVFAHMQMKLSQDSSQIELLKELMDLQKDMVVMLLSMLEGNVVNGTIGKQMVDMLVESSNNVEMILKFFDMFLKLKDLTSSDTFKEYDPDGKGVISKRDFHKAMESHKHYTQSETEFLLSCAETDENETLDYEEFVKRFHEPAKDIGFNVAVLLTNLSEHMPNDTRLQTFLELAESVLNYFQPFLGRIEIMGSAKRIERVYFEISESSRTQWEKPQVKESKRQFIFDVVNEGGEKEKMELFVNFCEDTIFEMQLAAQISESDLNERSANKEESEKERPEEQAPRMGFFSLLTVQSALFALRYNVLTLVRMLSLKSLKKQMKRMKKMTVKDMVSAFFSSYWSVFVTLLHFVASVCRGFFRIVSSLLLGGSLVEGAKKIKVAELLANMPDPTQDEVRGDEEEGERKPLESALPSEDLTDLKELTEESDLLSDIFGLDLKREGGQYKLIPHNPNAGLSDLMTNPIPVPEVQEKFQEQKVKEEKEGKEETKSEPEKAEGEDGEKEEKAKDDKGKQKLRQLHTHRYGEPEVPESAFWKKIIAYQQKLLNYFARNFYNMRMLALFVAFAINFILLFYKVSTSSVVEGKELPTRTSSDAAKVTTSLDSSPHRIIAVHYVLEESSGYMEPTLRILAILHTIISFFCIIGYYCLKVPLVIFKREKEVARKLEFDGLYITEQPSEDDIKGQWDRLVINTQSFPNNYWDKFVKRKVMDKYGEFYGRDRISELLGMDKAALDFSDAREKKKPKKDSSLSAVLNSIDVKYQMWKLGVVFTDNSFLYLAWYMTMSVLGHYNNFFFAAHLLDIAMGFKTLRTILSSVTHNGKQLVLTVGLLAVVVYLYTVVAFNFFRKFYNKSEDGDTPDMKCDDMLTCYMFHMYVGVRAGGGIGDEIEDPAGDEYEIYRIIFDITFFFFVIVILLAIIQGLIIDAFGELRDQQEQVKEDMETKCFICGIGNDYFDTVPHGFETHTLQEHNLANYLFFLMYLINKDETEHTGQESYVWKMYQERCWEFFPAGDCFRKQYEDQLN

Target: cardiac ryanodine receptor (RyR2) (Rattus norvegicus, UniProt B0LPN4)

Compound: COc1ccccc1OCCNC[C@@H](O)COc1cccc2[nH]c3ccccc3c12 [R-carvedilol]
- single-channel recording in planar lipid bilayers after 1 h pre-incubation with: 1 µM
